# Reported vapor pressure values for industrial, environmental and drug-like chemicals

Vapor pressures (log10 mmHg) refer to near room temperature, 15 to 30 °C; higher is more volatile.
"n/a" marks a cell with nothing listed here.
"via" names the databases from which the curators took the value.

structure (SMILES),name,log vapor pressure (log10 mmHg),via
CCCCC(CC)CN(CCC(=O)[O-])CCC(=O)O.[Na+] (stereo not drawn),n/a,-4.655,eChemPortal
CCCCC1=NC2(CCCC2)C(=O)N1Cc1ccc(-c2ccccc2C#N)cc1,n/a,-8.727,eChemPortal
CCCCCCCCC(=O)OCC(COC(=O)CCCCCCCC)OC(=O)CCCCCCCC,Tripelargonin,-5.385,eChemPortal
CC(C)CCC[C@@H](C)[C@H]1CC[C@H]2[C@@H]3CC=C4C[C@@H](O)CC[C@]4(C)[C@H]3CC[C@]12C,Cholesterol,-9.273,eChemPortal
CCOC1C(C)CCCC1C (stereo not drawn),"2-Ethoxy-1,3-dimethylcyclohexane",0.409,eChemPortal
Clc1ccccc1-c1c(Cl)c(Cl)cc(Cl)c1Cl,"2,2',3,5,6-Pentachlorobiphenyl",-3.943,OCHEM
CC1CC(C)(C)OC(Cc2ccccc2)O1 (stereo not drawn),"2-Benzyl-4,4,6-trimethyl-1,3-dioxane",-2.292,eChemPortal
C[C@@H]1CC[C@H](C)C1,n/a,1.82,OCHEM
C(OCC1CO1)C1CO1 (stereo not drawn),"2,2'-(Oxybis(methylene))bisoxirane",-1.046,PubChem
O=C1OCC(F)O1 (stereo not drawn),"1,3-Dioxolan-2-one, 4-fluoro-",-0.417,eChemPortal
Nc1ccc(F)cc1,4-Fluoroaniline,-0.068,"PubChem, eChemPortal"
Clc1cccc(-c2cccc(Cl)c2Cl)c1,"2,3,3'-Trichlorobiphenyl",-3.606,OCHEM
CCCOC(=O)c1ccc(O)cc1,Propylparaben,-5.402,eChemPortal
CC(=O)On1ccccc1=O,n/a,-3.997,eChemPortal
Cc1ccc(Sc2ccc(C(=O)c3ccccc3)cc2)cc1,"Methanone, [4-[(4-methylphenyl)thio]phenyl]phenyl-",-5.18,eChemPortal
c1cc(CN(CC2CO2)CC2CO2)cc(CN(CC2CO2)CC2CO2)c1 (stereo not drawn),n/a,-1.084,eChemPortal
FC(F)(F)C(F)(F)C(F)(F)C(F)(F)C(F)(F)C(F)(F)CCI,"1H,1H,2H,2H-Perfluorooctyl iodide",-0.618,eChemPortal
CNC(=O)c1cc(C#N)cc(C)c1N,"2-Amino-5-cyano-N,3-dimethylbenzamide",-6.231,eChemPortal
CC(C)CCCCCCCCCCCCCCC(=O)[O-].CC(C)CCCCCCCCCCCCCCC(=O)[O-].[Ca+2],Calcium isostearate,-5.648,eChemPortal
CCCCc1ccc(Nc2ccc(Nc3ccc(CCCC)cc3)c3c2C(=O)c2c(Nc4ccc(CCCC)cc4)ccc(Nc4ccc(CCCC)cc4)c2C3=O)cc1,n/a,-8.197,eChemPortal
CCCCc1nc(C=O)c(Cl)[nH]1,2-Butyl-5-chloroimidazole-4-carbaldehyde,-5.385,eChemPortal
CCC(COC(=O)CC(C)CC(C)(C)C)(COC(=O)CC(C)CC(C)(C)C)COC(=O)CC(C)CC(C)(C)C (stereo not drawn),"Trimethylolpropane tris(3,5,5-trimethylhexanoate)",-7.62,eChemPortal
CC(=O)OCCC(C)CC(C)(C)C (stereo not drawn),"3,5,5-Trimethylhexyl acetate",0.009,eChemPortal
O=C1/C(=C2/Nc3ccc(Br)cc3C2=O)Nc2ccccc21,Bromindigo R,-6.523,OCHEM
CCCCC(CC)CNC(=O)CC(C)CC(C)(C)C (stereo not drawn),"N-(2-Ethylhexyl)-3,5,5-trimethylhexanamide",-3.444,eChemPortal
CN(C)C1=[O+]CCC1(c1ccccc1)c1ccccc1.[Br-],n/a,-4.624,eChemPortal
CC(C)(C)C(CCC(=O)O)CC(=O)O (stereo not drawn),3-tert-Butyladipic acid,-6.437,eChemPortal
Cc1cccc(C)c1OCC(=O)O,"Acetic acid, (2,6-dimethylphenoxy)- (9CI)",-6.118,eChemPortal
CCOCC1CCC(COCC)CC1 (stereo not drawn),"1,4-Bis(ethoxymethyl)cyclohexane",-1.954,eChemPortal
C=CCOC(=O)COC1CCCCC1,2-Propen-1-yl 2-(cyclohexyloxy)acetate,-0.354,eChemPortal
O=C1CCC(C2CCC(c3ccc(F)c(F)c3)CC2)CC1 (stereo not drawn),n/a,-5.895,eChemPortal
CCCCC(CC)C(=O)OCC(COC(=O)C(CC)CCCC)(COC(=O)C(CC)CCCC)COC(=O)C(CC)CCCC (stereo not drawn),n/a,-8.639,eChemPortal

Again, the 3 entries with the lowest log vapor pressure:

{"smiles": "CC(C)CCC[C@@H](C)[C@H]1CC[C@H]2[C@@H]3CC=C4C[C@@H](O)CC[C@]4(C)[C@H]3CC[C@]12C", "name": "Cholesterol", "log vapor pressure (log10 mmHg)": "-9.273", "via": "eChemPortal"}
{"smiles": "CCCCC1=NC2(CCCC2)C(=O)N1Cc1ccc(-c2ccccc2C#N)cc1", "log vapor pressure (log10 mmHg)": "-8.727", "via": "eChemPortal"}
{"smiles": "CCCCC(CC)C(=O)OCC(COC(=O)C(CC)CCCC)(COC(=O)C(CC)CCCC)COC(=O)C(CC)CCCC", "stereo": "stereo not drawn", "log vapor pressure (log10 mmHg)": "-8.639", "via": "eChemPortal"}

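The numbers are reported measurements, compiled and curated for the OPERA QSAR suite. One number stands for a compound and property, with no spread given. Method, purity and exact conditions of the single measurements are not given. Where a salt, mixture or single isomer is drawn, the source does not say that exactly this form was tested. Unmarked limits or estimates from the upstream databases cannot be ruled out.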

Values as listed in the OPERA 2.9 repository of K. Mansouri.